Data taken from patent publication US9024071B2, “Therapeutic compounds” (University of Florida Research Foundation, Inc., priority 2009, dated 2015).

By UniProt entry, the sequences of proteins in these tests, tags left out. Residues count along the entry.
UniProt P28335, 33-458: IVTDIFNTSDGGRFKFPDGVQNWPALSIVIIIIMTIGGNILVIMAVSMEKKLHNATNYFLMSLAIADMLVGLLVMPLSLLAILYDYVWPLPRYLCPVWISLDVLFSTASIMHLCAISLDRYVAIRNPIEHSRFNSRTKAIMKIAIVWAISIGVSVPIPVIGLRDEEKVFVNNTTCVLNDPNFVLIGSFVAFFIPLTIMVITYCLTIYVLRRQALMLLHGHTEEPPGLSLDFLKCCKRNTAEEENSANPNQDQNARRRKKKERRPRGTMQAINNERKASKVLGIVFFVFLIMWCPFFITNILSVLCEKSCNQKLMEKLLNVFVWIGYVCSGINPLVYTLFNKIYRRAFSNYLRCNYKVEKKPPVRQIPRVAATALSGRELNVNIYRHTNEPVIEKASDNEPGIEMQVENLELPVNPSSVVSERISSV

Biological target: 5HT2C (Homo sapiens, UniProt P28335)
Assay: Radioreceptor competition/saturation binding, 5HT2C ([3H]-mesulergine)
Settings: radioligand saturation binding, membranes from transfected CHO cells
Protocol: Cells are grown at 37° C. in a humidified incubator with 5% CO2. The cDNAs encoding the human 5-HT2A, 5-HT2B, and 5-HT2C receptors (wild type) are purchased from UMR (Rolla, Mo.) for transient transfection of the clonal cells. For radioreceptor binding assays, 5-HT2A, 5-HT2B, and 5-HT2C receptor membranes are prepared from transfected CHO-K1 cells. For functional assays measuring activity of PLC/IP formation, transfected CHO-K1 cells are used for 5-HT2A and 5-HT2C receptors. […] Twenty-four hours before transfection, cells are seeded at 40% confluence in 100 mm dishes for radioreceptor binding assays or at 10^5 cells per well in 12-well plates for functional assays. […]
Radioreceptor saturation and competition binding assays are performed using membrane homogenates, similar to our methods reported previously for the phylogenetically closely related histamine H1 GPCR (Booth, 2002; Moniri et al., 2004). […] Protein concentration is determined by the method of Lowry et al. (Lowry, 1951). […] The membrane-bound [^3H]-radioligand retained on the filter discs is quantified by liquid scintillation spectrometry. Data are analyzed by nonlinear regression using the sigmoidal curve-fitting algorithms in Prism 4.03 (GraphPad Software Inc., San Diego, Calif.). […]

Question: For CN1CC(NS(=O)(=O)N(C)C)C[C@@H]2c3cccc4c3c(cn4C)C[C@H]21 (stereo partly shown) [[^3H]-mesulergine, [N^6-methyl-^3H]-mesulergine, reference compound], which Kd is on record?
Answer: The Kd was 0.88 ± 0.03 nM.
